How the values were obtained:
iNOS = iNOS (Mus musculus, UniProt P29477); assay: iNOS inhibition assay: NO generated by lipopolysaccharide-stimulated Raw264.7 cells, Griess reaction; conditions: for iNOS antagonistic activity (in words): at a very low concentration; for CC50: read-out: iNOS (lC50), Raw264.7 cells, lipopolysaccharide stimulation, 12 hours culture with compound, NO by Griess reaction
Protocol: (§1) Inhibition assay was performed with the compounds (1) and (2), the most representative compounds among those amorphous pure theopederin derivatives (1)-(24), to examine the iNOS inhibitory activity. Particularly, leucocyte originated animal cells (Raw264.7) were cultured in dMEM supplemented with 10% bovine serum and 1% antibiotics for 12 hours in a 5% CO2 incubator. Lipopolysaccharide stimulating the iNOS expression and the compounds (1) and (2) were added thereto, followed by further culture for 12 hours. The amount of NO generated was investigated by measuring the color development by Griess reaction. In the meantime, iNOS inhibitor 1400W was used as a control.

Chains of the proteins cited; added tags and fusions are not shown.
UniProt P29477, whole entry: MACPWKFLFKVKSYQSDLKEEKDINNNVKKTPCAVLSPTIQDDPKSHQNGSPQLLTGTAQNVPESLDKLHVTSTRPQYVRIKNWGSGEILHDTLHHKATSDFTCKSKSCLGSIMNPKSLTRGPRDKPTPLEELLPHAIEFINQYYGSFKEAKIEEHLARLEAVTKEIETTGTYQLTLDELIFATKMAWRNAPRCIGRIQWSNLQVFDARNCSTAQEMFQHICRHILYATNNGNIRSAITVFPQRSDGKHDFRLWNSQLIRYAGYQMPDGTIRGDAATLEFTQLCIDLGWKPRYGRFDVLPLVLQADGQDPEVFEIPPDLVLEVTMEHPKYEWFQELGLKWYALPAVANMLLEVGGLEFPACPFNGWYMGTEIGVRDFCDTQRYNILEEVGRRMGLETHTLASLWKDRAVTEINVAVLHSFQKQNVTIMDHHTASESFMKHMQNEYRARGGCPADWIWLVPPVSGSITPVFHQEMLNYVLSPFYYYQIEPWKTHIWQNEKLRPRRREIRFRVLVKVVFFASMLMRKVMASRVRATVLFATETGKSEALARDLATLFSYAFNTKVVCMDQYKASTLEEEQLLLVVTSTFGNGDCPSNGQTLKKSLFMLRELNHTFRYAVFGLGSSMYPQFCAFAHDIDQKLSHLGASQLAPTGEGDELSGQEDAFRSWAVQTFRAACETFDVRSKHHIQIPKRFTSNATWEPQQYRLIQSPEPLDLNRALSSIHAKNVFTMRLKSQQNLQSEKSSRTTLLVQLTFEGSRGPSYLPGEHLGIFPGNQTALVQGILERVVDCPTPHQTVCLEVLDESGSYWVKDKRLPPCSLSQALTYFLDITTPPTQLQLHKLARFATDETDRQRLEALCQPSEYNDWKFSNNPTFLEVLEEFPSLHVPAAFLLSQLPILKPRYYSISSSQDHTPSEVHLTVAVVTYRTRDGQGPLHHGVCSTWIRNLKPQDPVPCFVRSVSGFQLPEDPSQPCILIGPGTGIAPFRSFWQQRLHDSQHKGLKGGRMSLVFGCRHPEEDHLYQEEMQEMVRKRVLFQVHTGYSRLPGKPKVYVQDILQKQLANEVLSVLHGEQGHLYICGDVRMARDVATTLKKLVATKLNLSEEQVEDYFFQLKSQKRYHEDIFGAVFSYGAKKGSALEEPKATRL

Raw264.7 = assay: Cytotoxicity of theopederin derivatives; conditions: for cytotoxicity (in words): at the concentration of iNOS antagonistic activity; for Cytotoxicity: quantity type not stated, cell line presumably Raw264.7
Protocol: as §1
Theopederin derivatives (1) and (2) were confirmed to have excellent iNOS antagonistic activity at a very low concentration without inducing cytotoxicity.

| Compound | iNOS antagonistic activity (in words) (iNOS) | CC50 (iNOS) | cytotoxicity (in words) (Raw264.7) | Cytotoxicity (Raw264.7) |
| --- | --- | --- | --- | --- |
| C=C1C[C@](OC)([C@H](O)C(=O)N[C@H]2OCO[C@H]3[C@@H]2O[C@H](C[C@H](O)CO)C(C)(C)[C@@H]3OC)O[C@H](C)[C@@H]1C | excellent iNOS antagonistic activity | 30 nM | without inducing cytotoxicity | 120 nM |
| C=C1C[C@](OC)([C@H](O)C(=O)N[C@H]2OCO[C@H]3[C@@H]2O[C@H](CO)C(C)(C)[C@@H]3OC)O[C@H](C)[C@@H]1C | excellent iNOS antagonistic activity | 2.6 nM | without inducing cytotoxicity | 116 nM |

From US20100105763A1, “PHARMACEUTICAL COMPOSITION, HEALTH FOOD COMPOSITION AND INOS INHIBITORS, CONTAINING THEOPEDERIN DERIVATIVES” (SEOUL NATIONAL UNIVERSITY INDUSTRY FOUNDATION, priority 2006, published 2010)
